From patent US20070270348A1, “Compositions and Methods for Modulating Insulin-Activated Nitric Oxide Synthase” (priority 2004, published 2007)

System: Ehrlich's ascitic carcinoma cells (EAC cells)
Test: Survival and body weight of mice with Ehrlich's carcinoma ascites
Details: EAC injection and oral allimin; from 20.57±0.78 g; control 55.76±1.69 g

## Allimin (XMIPTNGEGLYAGQSLDVEQYKFIMRPDDNLVXYX; X: residue not identified in the source; listed as Allium sp.)
  body weight after peritoneal fluid accumulation: 38.68 ± 1.34 g

Ends that are not written are not given here.
